Columns and labels:
[1] = molecular target: Spleen Tyrosine kinase (SYK, EST clone IMAGE 3870426), in vitro translated, biotin-labelled (UniProt P43405); experiment: cell-based or functional assay
[2] = molecular target: Luciferase (Mock, Promega control plasmid), in vitro translated, biotin-labelled [luciferase: P08659]; experiment: cell-based or functional assay

- ECL signal with Sulfo-TAG anti-phosphotyrosine after SAP treatment and SRC reaction (+SRC, +SAP) [1]: 1650 ECL signal
- ECL signal with Sulfo-TAG anti-phosphotyrosine after SAP treatment and SRC reaction (+SRC, +SAP) [2]: 1150 ECL signal
Substance: SRC (known kinase, 0.1 mU SRC/µl) (from UniProt P12931 1-536) (enzyme)
